ChEMBL document CHEMBL5321287, “Discovery, Synthesis, and Evaluation of Novel Dual Inhibitors of a Vascular Endothelial Growth Factor Receptor and Poly(ADP-Ribose) Polymerase for BRCA Wild-Type Breast Cancer Therapy” (J Med Chem, 2023)
Activity calls are given as the source filed them. The calls are words filed in the database; no cut-off is given here.

Columns and labels:
[1] = system: MCF7; test: Induction of apoptosis in human MCF7 cells assessed as increase in Bax level at 4 uM incubated for 2 days in presence of 1:1 of compound:Pazopanib by immunoblot analysis; format: functional, cell-based; conditions: time 2.0 day
[2] = system: MDA-MB-231; test: Induction of HR DNA repair in human MDA-MB-231 cells xenografted in BALB/c nude mouse assessed as decrease in RAD51 level at 50 mg/kg, po for 14 days in presence of 1:1 of compound:Pazopanib by H and E staining based IHC analysis; format: functional, organism-based; conditions: time 14.0 day
[3] = system: MCF7; test: Induction of hypoxia in human MCF7 cells assessed as upregulation of HIF-1alpha level at 4 uM incubated for 2 days in presence 1:1 of Pazopanib by Western blot analysis; format: functional, cell-based; conditions: time 2.0 day
[4] = system: MDA-MB-231; test: Antimigratory activity in human MDA-MB-231 cells assessed as downregulation of MMP-2 level at 4 uM in presence of 1:1 of compound:Pazopanib by DAPI staining based immunofluorescence analysis; format: functional, cell-based
[5] = system: MCF7; test: Inhibition of colony formation in human MCF7 cells at 4 uM incubated for 10 days in presence of 1:1 of compound:Pazopanib by crystal violet staining based assay; format: functional, cell-based; conditions: time 10.0 day
[6] = system: MDA-MB-231; test: Induction of DNA damage in human MDA-MB-231 cells xenografted in BALB/c nude mouse assessed as increase in gamma-H2AX level at 50 mg/kg, po for 14 days in presence of 1:1 of compound:Pazopanib by H and E staining based IHC analysis; format: functional, organism-based; conditions: time 14.0 day
[7] = system: MDA-MB-231; test: Downregulation of PAR expression in human MDA-MB-231 cells at 4 uM incubated for 2 days in presence 1:1 of Pazopanib by Western blot analysis; format: functional, cell-based; conditions: time 2.0 day
[8] = system: MDA-MB-231; test: Antimigratory activity in human MDA-MB-231 cells assessed as downregulation of MMP-2 level at 4 uM incubated for 2 days in presence of 1:1 of compound:Pazopanib by immunoblot analysis; format: functional, cell-based; conditions: time 2.0 day
[9] = system: MDA-MB-231; test: Induction of HR DNA repair in human MDA-MB-231 cells xenografted in BALB/c nude mouse assessed as decrease in RAD51 level at 50 mg/kg, po for 14 days in presence of 1:1 of compound:Pazopanib by Western blot analysis; format: functional, organism-based; conditions: time 14.0 day
[10] = system: MCF7; test: Induction of apoptosis in human MCF7 cells assessed as increase in cleaved caspase-3 level at 4 uM incubated for 2 days in presence of 1:1 of compound:Pazopanib by immunoblot analysis; format: functional, cell-based; conditions: time 2.0 day
[11] = system: MDA-MB-231; test: Induction of apoptosis in human MDA-MB-231 cells assessed as increase in Bax level at 4 uM incubated for 2 days in presence of 1:1 of compound:Pazopanib by immunoblot analysis; format: functional, cell-based; conditions: time 2.0 day
[12] = system: MCF7; test: Induction of DNA damage in human MCF7 cells assessed as increase in gamma-H2AX level at 4 uM incubated for 48 hrs in presence of 1:1 of compound:Pazopanib by DAPI staining based immunofluorescence analysis; format: functional, cell-based
[13] = system: MDA-MB-231; test: Induction of HR DNA repair in human MDA-MB-231 cells xenografted in BALB/c nude mouse assessed as decrease in FOXM1 level at 50 mg/kg, po for 14 days in presence of 1:1 of compound:Pazopanib by Western blot analysis; format: functional, organism-based; conditions: time 14.0 day
[14] = system: MCF7; test: Induction of DNA damage in human MCF7 cells assessed as increase in comet tail length at 4 uM in presence 1:1 of Pazopanib by alkaline comet assay; format: functional, cell-based
[15] = system: MCF7; test: Induction of HR DNA repair in human MCF7 cells assessed as decrease in RAD51 level at 4 uM incubated for 48 hrs in presence of 1:1 of compound:Pazopanib by DAPI staining based immunofluorescence analysis; format: functional, cell-based
[16] = system: MDA-MB-231; test: Antimigratory activity in human MDA-MB-231 cells xenografted in lungs of BALB/c nude mouse assessed as decrease in MMP2 level in lungs at 50 mg/kg administered once a day measured after 14 days in presence of 1:1 of compound:Pazopanib by IHC analysis; format: functional, organism-based; conditions: time 14.0 day

O=C(c1cc(Cc2n[nH]c(=O)c3ccccc23)ccc1F)N1CCN(C(=O)C2CC2)CC1 [OLAPARIB]
Activity [1]: Active
Activity [2]: Active
Activity [3]: Active
Activity [4]: Active
inhibition [5]: Active
Activity [6]: Active
Activity [7]: inactive
Activity [8]: Active
Activity [9]: Active
Activity [10]: Active
Activity [11]: Active
Activity [12]: Active
Activity [13]: Active
Activity [14]: Active
Activity [15]: Active
Activity [16]: Active
